Values quoted from earlier work as cited in patent US12239707B2, “Photodynamic compositions and methods of use” (MT RESEARCH, LLC, priority 2018, dated 2025).

Tested on: SKOV-3/luc tumors

Substance: IR700 conjugated with trastuzumab: IR700 conjugated with trastuzumab, photoimmunotherapy agent (Sato and coworkers)
- relative luminescence units (RLU) compared to NIR-treated mice (day 4 post light treatment, 100 J/cm2 NIR light): lower
- relative luminescence units (RLU) (day 14, 100 J/cm2 NIR light at day zero): recovered to post-treatment levels
